The chains behind the UniProt entries cited, without tags or fusion partners.
Importin subunit beta-1 (Homo sapiens), Q14974, UniProt Q14974, whole entry, looked up: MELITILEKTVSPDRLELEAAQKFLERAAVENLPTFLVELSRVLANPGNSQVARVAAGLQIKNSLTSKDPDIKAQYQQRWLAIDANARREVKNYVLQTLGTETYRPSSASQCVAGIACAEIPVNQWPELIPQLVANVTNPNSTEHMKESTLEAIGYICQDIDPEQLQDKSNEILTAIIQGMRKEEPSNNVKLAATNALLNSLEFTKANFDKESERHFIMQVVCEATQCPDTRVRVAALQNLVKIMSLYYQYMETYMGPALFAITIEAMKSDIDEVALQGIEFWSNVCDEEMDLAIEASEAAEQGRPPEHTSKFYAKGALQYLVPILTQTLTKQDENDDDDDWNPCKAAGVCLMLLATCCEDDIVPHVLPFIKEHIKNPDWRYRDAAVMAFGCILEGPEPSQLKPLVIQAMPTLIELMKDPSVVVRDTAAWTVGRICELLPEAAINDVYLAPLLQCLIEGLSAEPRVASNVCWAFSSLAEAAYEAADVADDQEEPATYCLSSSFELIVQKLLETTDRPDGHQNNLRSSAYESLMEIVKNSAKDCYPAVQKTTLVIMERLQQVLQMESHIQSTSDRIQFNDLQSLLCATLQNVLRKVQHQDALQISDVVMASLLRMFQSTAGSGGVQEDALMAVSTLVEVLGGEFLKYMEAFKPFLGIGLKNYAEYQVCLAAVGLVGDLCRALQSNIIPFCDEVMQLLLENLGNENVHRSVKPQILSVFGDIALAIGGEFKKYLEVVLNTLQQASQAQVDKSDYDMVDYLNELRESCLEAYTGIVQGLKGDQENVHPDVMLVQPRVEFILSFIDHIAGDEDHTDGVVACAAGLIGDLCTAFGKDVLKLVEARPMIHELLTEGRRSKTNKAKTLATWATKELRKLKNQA

# This is a sample that favours compounds with a hit; in the whole collection about 1.3% have one here.
# Rango complex inh – qHTS Assay for Inhibitors of Rango (Ran-regulated importin-beta cargo) - Importin beta complex formation | Importin subunit beta-1 (Homo sapiens), Q14974 | Potency, µM (titrated, usually from 92.2 µM) | 340,000 compounds, 0.031% hits | Rango CFP/YFP FRET sensor + importin beta, 45 min; also: nearly all actives have a fitted effect of over 15% in size
#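 FRET biosensor (snurportin 1 IBB flanked by EYFP and cerulean), 50 nM, with compound 5 min, then 0.125 microM importin beta in PBS, 1 mM DTT, 0.02% Tween-20, 0.1% BSA. CFP/YFP ratio read after 45 min at room temperature; pre-read flags interference.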
# Rango dissoc inh – qHTS Assay for Inhibitors of RanGTP induced Rango (Ran-regulated importin-beta cargo) - Importin beta complex dissociation; Snurportin-1 (Homo sapiens) + GTP-binding nuclear protein Ran (Homo sapiens) + Importin …; Biochemical FRET Rango-importin beta, RanGTP-induced dissociation; Potency, µM (series often up to 46.1 µM); 340,000 compounds, 0.071% hits; AID 540253, 2011; also: nearly all actives have a fitted effect of over 45% in size
#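 Rango/importin beta premix (0.1/0.25 uM final), PBS + 1 mM DTT + 0.02% Tween-20 + 0.1% BSA; cpd 5 min RT; FRET pre-read; + RanGTP-RCC1 (0.6 uM Ran, 2 mM GTP, 0.2 uM RCC1); 45 min RT; FRET post-read, ex 430, em 486/530 nm.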
# hERG WT inh – qHTS for Inhibitors of KCHN2 3.1: Wildtype qHTS. U2OS, BacMam KCNH2, thallium flux FluxOr; stronger effect = lower value. Voltage-gated inwardly rectifying potassium channel KCNH2 (Homo sapiens), Q12809. activity change, % at 1.84 µM. 340,000 compounds, 0.37% hits. AID 720551, 2013;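 active = maximum activity change below -70%; inconclusive = maximum activity change between -70% and -50%; inactive = maximum activity change above -50%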
#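 U2OS cells were transduced with wild-type KCNH2 virus (2.03 x 10^8 / mL) for 4 h at room temperature, then cultured overnight at 37 C. Thallium flux was read with FluxOr dye. Rate constants were normalized to DMSO controls.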
# KCNH2 3.1 block – qHTS for Inhibitors of KCHN2 3.1: Mutant qHTS; Potassium voltage-gated channel subfamily H member 2, brain isoform KCNH2 3.1 (human); 340,000 compounds, 0.95% hits; activity change, % (tested at about 1.8 µM); U2OS KCNH2 3.1, thallium flux FluxOr; stronger effect = lower value;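 active = maximum activity change below -70%; inconclusive = maximum activity change from -70% to -50%; inactive = maximum activity change above -50%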;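 also: thallium influx rate constant from kinetic fluorescence after stimulation buffer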
#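 Virally transduced U2OS (3.1 isoform, 4 h infection in dark at RT) → overnight 37 C → FluxOr + Red40 in HBSS/HEPES, 45 min → stimulation buffer, 2 min kinetic read → rate constant vs DMSO controls.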
# Numbers stand for hits; - = inactive; ? = inconclusive; . = not tested or not shown. Unless noted, calls follow the shape of the full dose curve.
SMILES,Rango complex inh,Rango dissoc inh,hERG WT inh,KCNH2 3.1 block
O=C(CCCNC(=O)c1ccc(Cl)cc1)Nc1ccccc1C(F)(F)F,?,-,-,-
NCc1ccccc1CS(=O)(=O)N1CCOCC1,-,-,-,-
Cc1cc(-c2ccc(C)c(S(=O)(=O)N3CCN(c4ccc([N+](=O)[O-])cc4)CC3)c2)on1,-,-,-,-96
COc1ccc2c(c1)C(=O)C1NC(=O)NC(=O)C1(Br)N2 (centres undefined),-,-,-,-
CC1CN(/C=C/C=O)C(C)CC1OC(=O)c1ccccc1 (centres undefined),-,-,-,-
Cn1c(SCC(=O)N2CCN(c3ccccc3)CC2)nnc1-c1ccco1,-,-,-77,-
Cn1c(SCC(=O)N2CCOCC2)nnc1-c1ccco1,-,-,-,-
CCc1c(C)nc(SCC(=O)N2CCN(c3ccccc3)CC2)[nH]c1=O,-,-,-79,.
CN(CC(=O)Nc1ccccc1Br)C(=O)CCSc1ccc(F)cc1,-,-,-,-
COc1ccccc1COc1ccc2c(C)c(CC(=O)O)c(=O)oc2c1C,-,-,-,-
Cc1nn(CC(=O)N(C)C)c(C)c1S(=O)(=O)N1CCOCC1,-,-,-,-
ON(Cc1c(F)cccc1Cl)Cc1c(F)cccc1Cl,-,-,-,-114
Fc1cccc(Cl)c1CSC1=NCCS1,-,-,-,-
Cc1nc(C)c(-c2ccc(SCc3cccc(F)c3)nn2)s1,-,-,-,-94
CC(C)(C)c1ccc(NC(=O)N2CCN(c3ccc([N+](=O)[O-])cn3)CC2)cc1,-,-,-,-103
O[C@@H]1CN(Cc2ccccc2Cl)CC[C@H]1N1CCOCC1,-,-,-,-
CCOc1ccccc1N1CCN(C(=O)C2c3ccccc3Oc3ccccc32)CC1,-,-,-,-
CS(=O)(=O)N1CCN(C(=O)C2c3ccccc3Oc3ccccc32)CC1,-,-,-,-185
Cc1cccc(C(=O)NCCN2CCCC2)c1,-,-,-,-
Cc1cccc(C(=O)NCCNC(=O)c2cccc(C)c2)c1,-,-,-264,.
O=C(Oc1cccc(NC(=O)c2ccccc2Cl)c1)c1ccc([N+](=O)[O-])cc1,-,-,-186,-
OCCN1CCN(c2nc(-c3ccccc3)c3cc(Cl)ccc3n2)CC1,?,?,-,-99
Cc1cc(/C=C(\C#N)C(=O)NCCc2c[nH]c3ccccc23)c(C)n1C,?,-,-,-
N#C/C(=C/c1ccc(Br)s1)C(=O)NCCc1c[nH]c2ccccc12,-,-,-74,-
CCC(=O)Nc1ccc(C2=Nn3c(nnc3C(C)C)SC2)cc1,-,-,-,-
SMILES,Rango complex inh,Rango dissoc inh,hERG WT inh,KCNH2 3.1 block
COc1ccc(C)cc1NC(=O)c1sc2ncnc(N3CCN(c4ccccn4)CC3)c2c1C,-,-,-,?
Cc1ccc(NC(=O)c2sc3ncnc(N4CCN(c5ccccn5)CC4)c3c2C)c(C)c1,-,-,-73,-114
Cc1nc(N2CCN(c3ccccn3)CC2)c2c(C)c(C(=O)N3CCN(c4ccccc4F)CC3)sc2n1,-,-,-,-
Cc1nc(N2CCN(c3ccccn3)CC2)c2c(C)c(C(=O)Nc3ccc(Br)cc3C)sc2n1,-,-,-,-99
Cc1ccc(NC(=O)c2sc3nc(C)nc(N4CCN(c5ccccn5)CC4)c3c2C)c(C)c1,-,-,-,-70
COc1ccc(CCNC(=O)COC(=O)CSc2ccc(C(N)=O)cc2[N+](=O)[O-])cc1OC,-,-,-,-
COc1ccc(-c2nn(-c3ccccc3)cc2CNC[C@H]2O[C@@H](n3cnc(C(N)=O)n3)[C@H](O)[C@@H]2O)cc1,-,-,-,-
CCOC(=O)C1=C(COC(=O)CSc2ccc(C)cc2C)NC(=O)NC1C (centres undefined),-,-,-,-
COc1cccc(CN2CCN(C(=S)NCc3ccc(Cl)cc3)CC2)c1,-,-,-,-75
C[C@H](CO)N1C[C@H](C)[C@@H](CN(C)S(=O)(=O)c2ccccc2)Oc2ccc(NC(=O)NC3CCCCC3)cc2C1=O,-,-,-,.
Cc1ccc(N(Cc2ccccc2)C(=O)c2ccc(F)c(S(=O)(=O)N3CCOCC3)c2)cc1,-,-,-,-93
Cc1cccc(N(Cc2ccccc2)C(=O)c2ccc(F)c(S(=O)(=O)N3CCOCC3)c2)c1,-,-,-,-
Cc1cc(/C=C2\NC(=S)N(C)C2=O)ccc1N1CCCC1,-,-,-80,.
CCN(CC(=O)NCc1ccc(Cl)cc1)C(=O)c1cc(OC)cc(OC)c1,?,-,-,-
c1ccc(N2CCN(c3nc(NCc4ccco4)c4ccccc4n3)CC2)cc1,-,-,-81,-104
OCCNc1nc(N2CCCCC2)nc2ccccc12,-,-,-,-
c1ccc(CNc2nc(N3CCN(Cc4ccccc4)CC3)nc3ccccc23)cc1,-,-,-,-104
c1coc(CNc2nc(N3CCCCC3)nc3ccccc23)c1,-,-,-,-
CCc1ccc(C(=O)NNC(=O)C2CSC3(C)CCC(=O)N23)cc1 (centres undefined),-,-,-,-
Cn1c(=O)c2c(nc(Br)n2Cc2ccccc2Cl)n(C)c1=O,-,?,-,-88
CCOC(=O)c1c(C)[nH]c(C(=O)CN(C)CC(=O)Nc2ccccc2C(F)(F)F)c1C,-,-,-,-
NC(=O)COC(=O)c1cccnc1Nc1ccccc1F,-,-,-,-72
CN(C)C(=O)COC(=O)c1cccnc1Nc1ccccc1F,-,-,-,-
COc1ccc(NC(=O)CSc2nc3c(c(=O)n2-c2ccccc2OC)SCC3)cc1,-,-,-,-
COc1ccccc1-n1c(SCC(N)=O)nc2c(c1=O)SCC2,-,-,-,-70
SMILES,Rango complex inh,Rango dissoc inh,hERG WT inh,KCNH2 3.1 block
Cc1noc(/C=C/N(C)C)c1S(=O)(=O)N(C)Cc1ccc(F)cc1,?,?,-134,-199
CCc1ccc(Nc2cc(C(=O)NCCCN3CCOCC3)c3ccccc3n2)cc1,-,-,-,-74
CC1=CC=CC2=NC(=O)CC(C)(C(=O)N(CC(=O)NC3CCCC3)c3ccc(F)cc3)N12 (centres undefined),-,-,-,-
C[N+](C)(CCOc1ccccc1)Cc1ccccc1,-,-,-,-
Cc1cc(C(C)(C)CC(C)(C)C)ccc1OCCOCC[N+](C)(C)Cc1ccccc1,65µM,-,-,-
CCN(CC(=O)NCc1cccs1)C(=O)COc1ccc(C(C)=O)cc1,-,-,-,-
O=C(CN1CCN(c2ccc(F)cc2)CC1)NCc1ccc(F)cc1,-,-,-,-
O=C(CN1CCN(c2ccc(F)cc2)CC1)NCc1ccc(Cl)cc1,-,-,-,-77
O=C(CN1CCN(Cc2ccc(Cl)cc2)C1=O)NCCCN1CCOCC1,-,-,-,-
O=C(CN1CCN(Cc2ccc(Cl)cc2)C1=O)NCCCN1CCN(c2ccc(F)cc2)CC1,-,-,-116,-97

# Screens from PubChem BioAssay.
